Data reported in patent US12558356B2, “Immunophilin binding agents and uses thereof” (The Regents of the University of California, priority 2019, dated 2026).

By UniProt entry, the sequences of proteins in these tests, tags left out.
UniProt P62942, whole entry: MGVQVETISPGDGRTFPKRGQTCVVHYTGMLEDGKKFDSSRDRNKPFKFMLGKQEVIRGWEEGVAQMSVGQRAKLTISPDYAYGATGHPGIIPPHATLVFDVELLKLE

How the values were obtained:
FKBP12 = FKBP12 (Homo sapiens (Human), UniProt P62942); test: FKBP12 binding assay (fluorescence polarization)

SMILES | dependence of activity on FKBP12 (Src, Csk and DDR2) | Kd (FKBP12)
CO[C@H]1C/C(C)=C/[C@@H](CCCC(=O)N2CCN(c3cc(Nc4ncc(C(=O)Nc5c(C)cccc5Cl)s4)nc(C)n3)CC2)C(=O)C[C@H](O)[C@@H](C)[C@@H](/C(C)=C/[C@@H]2CC[C@@H](O)[C@H](OC)C2)OC(=O)[C@@H]2CCCCN2C(=O)C(=O)[C@]2(O)O[C@H]([C@@H](OC)C1)[C@@H](OC)C[C@H]2C | dependent on FKBP12 | 
CCC(C)(C)C(=O)C(=O)N1CCCC[C@H]1C(=O)O[C@H](CCc1ccc(OC)c(OC)c1)c1cccc(N)c1 [SLF, reference compound] |  | 23 nM
CCC(C)(C)C(=O)C(=O)N1CCCC[C@H]1C(=O)O[C@H](CCc1ccc(OC)c(OC)c1)c1cccc(NC(=O)[C@H](C)N)c1 [ZZY01-059] |  | 13.6 nM
